One assay concerns the target T1, mouse galanin receptor (Mus musculus, UniProt P56479).
T1 construct: expressed in transfected cells; host or cells: CHO dhfr- cells (CHO-MGR20)
T1 sequence (P56479 1-348): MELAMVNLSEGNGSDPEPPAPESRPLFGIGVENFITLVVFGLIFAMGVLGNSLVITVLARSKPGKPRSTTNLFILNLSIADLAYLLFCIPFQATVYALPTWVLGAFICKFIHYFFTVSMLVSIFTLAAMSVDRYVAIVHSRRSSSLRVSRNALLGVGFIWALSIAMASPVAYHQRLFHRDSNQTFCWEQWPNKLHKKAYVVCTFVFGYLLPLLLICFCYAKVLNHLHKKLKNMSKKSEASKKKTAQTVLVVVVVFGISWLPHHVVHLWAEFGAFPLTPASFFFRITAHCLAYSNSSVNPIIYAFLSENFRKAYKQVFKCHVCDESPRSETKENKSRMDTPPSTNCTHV
The assay is described as follows: Competitive binding of porcine [125I] galanin to mouse galanin receptor (CHO membrane fractions).

Assay [1] deals with T2, galanin receptor (MIN6 cell membrane fractions) (Mus musculus, UniProt P56479).
T2 construct: endogenous in cells; host or cells: MIN6 mouse pancreatic beta-cell line, membrane fraction
T2 sequence (P56479 1-348): T1 sequence (P56479 1-348)
The assay is described as follows: Galanin receptor binding experiment using MIN6 cell membrane fractions. To be noted: read-out: IC50 (concentration giving 50% of PMB), [125I] porcine galanin, 25° C. for 75 minutes.

A word on the Ki: it is the dissociation constant of the complex between target and ligand, obtained from inhibition or displacement. Low readings indicate higher affinity, high ones lower affinity.

On to Rat Galanin, for which the Ki at mouse galanin receptor (inhibition of porcine [125I] galanin binding, CHO membrane fractions with mouse galanin receptor) is 0.069 ± 0.002 nM. Also, the IC50 at mouse galanin receptor (porcine [125I] galanin 100 pM, membrane fractions 1 μg protein, 75 min at 25° C., mean±S.E.M.) came out at 0.25 ± 0.01 nM; in assay [1] it was 0.13 nM.

These data come from patent US6399325B1, “DNA encoding a galanin receptor” (priority 1994, dated 2002).
